These results are taken from US12377086B2, “Therapeutic methods, combinations and kits” (priority 2021, dated 2025).

Sequences of proteins named here, by UniProt entry; tags and fusion partners are left off.
UniProt C7C422, whole entry, looked up, species assumed: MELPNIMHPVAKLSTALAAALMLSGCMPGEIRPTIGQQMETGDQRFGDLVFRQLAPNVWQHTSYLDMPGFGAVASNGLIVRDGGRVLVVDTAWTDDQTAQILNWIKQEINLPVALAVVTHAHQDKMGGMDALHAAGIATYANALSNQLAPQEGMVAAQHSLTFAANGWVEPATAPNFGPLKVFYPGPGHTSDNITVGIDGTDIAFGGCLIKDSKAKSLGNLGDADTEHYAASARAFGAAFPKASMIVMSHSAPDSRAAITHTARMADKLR

Holding throughout (type): biochemical
Assay [1] addresses T1, NDM-1 (Klebsiella pneumoniae, UniProt C7C422). Particulars: 50 μM compound, 5 nM MBL, 10 μM nitrocefin, 30 mins.
In assay [2] the target is T1, NDM-1. The experiment in a line: Dose response enzymatic inhibition assay and inhibition constant, NDM-1. Particulars: for IC50: 5 nM MBL, 10 μM nitrocefin; for NDM-1 LE (ligand efficiency): LE = −1.38 log (Ki)/N, N = number of heavy atoms.
The target of the next assay is VIM-2 (Pseudomonas aeruginosa, UniProt Q5U7L7). The experiment in a line: biochemical.
The mark [3] stands for this setting: nitrocefin substrate, competitive-inhibition fit, read-out: NDM-1 Ki.

Structures are written as SMILES. Read-outs that look alike come from different tables or passages of the source.

Regarding `Oc1c(Br)cc(Br)c2cccnc12` [Compound 49], on NDM-1 [1], the NDM-1 percentage inhibition was found to be 93%.
A word on the IC50: it is the concentration at which inhibition is half-maximal. The Ki is a measure of affinity in units of concentration, obtained from inhibition or displacement. Regarding `Oc1ccc(Cl)c2cccnc12` [Compound 46], the NDM-1 percentage inhibition on NDM-1 [1] was 94%. In addition, on NDM-1 [2], the IC50 turned out to be 5300 nM and the “NDM-1 LE (ligand efficiency)” value is 0.67. Further, at NDM-1 [2] (setting [3]), the Ki worked out at 1400 nM.
For `Oc1c(Cl)cc(Cl)c2cccnc12` [Compound 47], in that order: 90%, 6400 nM, 0.62 and 1300 nM.
`O=[N+]([O-])c1ccc(O)c2ncccc12` [Compound 41]: the NDM-1 percentage inhibition at NDM-1 [1] stood at 89%. Moreover, on NDM-1 [2], the IC50 was 1000 nM and the “NDM-1 LE (ligand efficiency)” value was determined as 0.61. For the same compound, on NDM-1 [2] (setting [3]), the Ki is 580 nM.
With `O=C(O)c1ccnc2c(O)cccc12` [Compound 44], the NDM-1 percentage inhibition on NDM-1 [1] was determined as 88%. Besides, the Ki came to 670 nM at VIM-2 (nitrocefin substrate, competitive-inhibition fit) and 660 nM on NDM-1 [2] (setting [3]). The compound also yielded an IC50 at NDM-1 [2] of 1900 nM. The “NDM-1 LE (ligand efficiency)” value at NDM-1 [2] was 0.61.
As to `O=C(O)c1cnc2c(O)cccc2c1` [Compound 43], at NDM-1 [1], the NDM-1 percentage inhibition came out at 90%. Further, on NDM-1 [2], inhibition was half-maximal at 1900 nM (IC50) and the “NDM-1 LE (ligand efficiency)” value is 0.62. Further, the Ki on NDM-1 [2] (setting [3]) is 490 nM.
Regarding `Cc1ccc2c(Cl)cc(Cl)c(O)c2n1` [Compound 50], the NDM-1 percentage inhibition at NDM-1 [1] turned out to be 93%. Further, at NDM-1 [2], the half-maximal inhibitory concentration (IC50) was determined as 5300 nM and the “NDM-1 LE (ligand efficiency)” value was found to be 0.59. Moreover, the Ki at NDM-1 [2] (setting [3]) worked out at 1100 nM.
The like results for `Nc1ccc(O)c2ncccc12` [Compound 42] were, in that order, 86%, 1700 nM, 0.69 and 990 nM.
The like results for `Oc1c(I)cc(Cl)c2cccnc12` [Compound 48, Clioquinol, reference compound] were, in that order, 89%, 4800 nM, 0.63 and 1200 nM.
Take `O=C(O)c1ccc2cccnc2c1O` [Compound 45, 8-hydroxyquinoline-7-carboxylic acid]: the IC50 at VIM-2 was 740 nM; against NDM-1 [2], 760 nM. In addition, the Ki at NDM-1 [2] (setting [3]) and at NDM-1 [2] (read-out: Ki against NDM-1) was 350 nM in each case.
